How the values were obtained:
[1] = mouse, in vivo
[2] = rabbit, in vivo, iv
[3] = rat, in vivo

Substance: Cholylglycyl-^125 I-histamine [cholylglycyl-125I-histamine]
- hepatic scintigram (in words) [1]: The liver is prominently displayed with some radioactivity appearing in the small intestine
- blood t1/2 [2]: about 3.0 minutes
- percent of the dose in Duodenum ([3]; 60 min): 2.9%
- percent of the dose in Ileum ([3]; 60 min): 82.6%
- percent of the dose in Jejunum ([3]; 60 min): 9.0%
- percent of the dose in Liver ([3]; 60 min): 2.1%
- percent of the dose in Other organs ([3]; 60 min): 2.06%
- percent of the dose in Spleen ([3]; 60 min): 0.04%
- percent of the dose in Stomach ([3]; 60 min): 1.3%
- radioactivity excreted by the liver and found in the jejunum and ileum ([3]; iv, 1 h): 80-90%

Reference: patent publication US4207308A, “Process for purifying iodinated bile acid conjugates” (priority 1977, dated 1980)
